Target: GST-hCAR-LBD (Homo sapiens, UniProt Q14994)
Assay: CoAct binding inverse agonist assay (LanthaScreen TR-FRET, fluorescent PGC-1α coactivator recruitment/repression)
Assay type: biochemical
Conditions: Table 4

Protein sequences, listed by entry. Tags and fused reporters are not part of them. Residues count along the entry.
UniProt Q14994, 109-352 limits assumed: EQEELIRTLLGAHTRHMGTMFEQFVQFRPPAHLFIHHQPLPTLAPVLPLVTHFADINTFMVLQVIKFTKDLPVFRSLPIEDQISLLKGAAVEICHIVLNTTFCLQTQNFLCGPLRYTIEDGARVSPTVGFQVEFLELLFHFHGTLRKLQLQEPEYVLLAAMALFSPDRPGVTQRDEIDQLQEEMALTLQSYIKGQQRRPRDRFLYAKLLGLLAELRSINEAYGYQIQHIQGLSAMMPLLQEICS

SMILES | IC50 [µM]
CC(C)OC(=O)Nc1ccc2c(c1)N(CCn1cccc1)c1ccccc1CC2 | 0.31
CC(C)OC(=O)Nc1ccc2c(c1)N(CC(=O)n1cccc1)c1ccccc1CC2 | 1.17

Source: patent US9908890B2, “Selective inhibitors of constitutive androstane receptor” (ST. JUDE CHILDREN'S RESEARCH HOSPITAL, priority 2014, dated 2018)
